# Apparent affinities of Ab-14 variants for a coronavirus HR2 peptide

Antigen: PDVDLGDISGINAS, a 14-residue peptide of the SARS-CoV-2 spike HR2 region.

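Library AAYL49 holds single substitutions and randomly drawn double and triple substitutions in the CDRs. AlphaSeq pools MATa yeast showing the antibodies with MATalpha yeast showing the peptide. Binding brings cells together so that they mate, and sequencing counts the barcode pairs among the diploids. A regression on co-assayed BCL2-family reference pairs converts the normalised counts of each replicate to an apparent Kd. Each pool was mated in three replicate cultures.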

The variants keep the light chain, the linker and the frameworks of Ab-14 (scFv order VH, the linker GGGGSGGGGSGGGGS, VL).
VH: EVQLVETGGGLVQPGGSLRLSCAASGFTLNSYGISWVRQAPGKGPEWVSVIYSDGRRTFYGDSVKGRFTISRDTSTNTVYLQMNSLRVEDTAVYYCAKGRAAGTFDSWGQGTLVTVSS
VL: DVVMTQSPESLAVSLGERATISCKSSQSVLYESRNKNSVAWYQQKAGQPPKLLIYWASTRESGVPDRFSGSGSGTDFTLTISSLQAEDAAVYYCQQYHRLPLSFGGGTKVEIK

Positions count from residue 1 of the parent VH; R100C puts C in place of R. Scale: log10 of Kd in nM, estimated from mating counts; low values are strong binders. Averages over replicates are reported, and they cover detected replicates only. "not detected" marks a missing value. The strain was present, yet no cells mated with the target were sequenced in any replicate, which points to weak or no binding.

mean, log10 nM	seen in	control signals	changes
2.62	2/3	0/9	R100C A101S T104V
3.34	2/3	0/9	F59M D62L T104G
4.10	1/3	3/9	R56G G99I A102M
not detected	0/3	0/9	T28R D54K A101N
4.65	1/3	0/9	V50H V64I G103V
5.23	3/3	7/9	L29I S31K T58I
not detected	0/3	0/9	G33I R57P T58A
not detected	0/3	0/9	I34C V64S F105Q
not detected	0/3	3/9	Y52Q Y60H
not detected	0/3	2/9	S35R A101Y T104Y
3.51	3/3	1/9	T28V K65N A101C
not detected	0/3	2/9	F27R Y32D S107L
not detected	0/3	2/9	F27V T28V Y60S
not detected	0/3	0/9	S31L S35D R100S
not detected	0/3	0/9	Y32G Y60S A101T
not detected	0/3	0/9	S31K G99P A102C
3.38	1/3	1/9	Y52R V64N A102E
4.70	2/3	4/9	S31I G33P V64T
not detected	0/3	0/9	S31R I51K G99E
1.15	3/3	0/9	R56V F59N G61S
5.06	2/3	3/9	I34P T58R V64C
not detected	0/3	0/9	I34T V50E V64Q
4.33	1/3	3/9	I34T G55A T104D
3.72	1/3	1/9	G55I T58F K65F
4.03	2/3	3/9	I34Q I51M F105G
1.46	3/3	0/9	S31H F59V V64A
not detected	0/3	0/9	D54Q F59Y T104H
not detected	0/3	1/9	F27D N30Y D106Q
not detected	0/3	0/9	S53Q Y60K G103D
1.91	3/3	1/9	F27I N30E K65E
4.34	1/3	0/9	G55P K65A
4.14	1/3	3/9	S35F R56M F105N
5.10	1/3	2/9	N30F V50H S107I
5.07	1/3	2/9	G26P T58D Y60F
4.21	3/3	0/9	R56C K65V G99R
5.69	1/3	0/9	S53M D62A A102S
4.10	1/3	0/9	G33K G55D F105H
2.57	1/3	1/9	I34T I51W A101R
4.32	2/3	3/9	I34S S53L R56G
3.33	1/3	1/9	G33T S35D D62W
not detected	0/3	1/9	Y32A G33N V50D
4.24	3/3	3/9	I34Y D54V R57I
not detected	0/3	0/9	S31K I34V G99E
2.01	2/3	1/9	R56A G61I A101D
not detected	0/3	0/9	S31G Y60D D62I
1.97	1/3	0/9	N30G T58Q G99I
4.21	2/3	1/9	Y32A R57F G103D
3.66	1/3	1/9	N30W S35M S63K
not detected	0/3	0/9	Y52M D62M
4.65	2/3	2/9	S63L G99M
3.10	1/3	3/9	L29D N30M F59N

From the list, the first 6 with no signal in any replicate:

changes	mean, log10 nM	seen in	control signals
T28R D54K A101N	not detected	0/3	0/9
G33I R57P T58A	not detected	0/3	0/9
I34C V64S F105Q	not detected	0/3	0/9
Y52Q Y60H	not detected	0/3	3/9
S35R A101Y T104Y	not detected	0/3	2/9
F27R Y32D S107L	not detected	0/3	2/9

In this assay the parent's reference entry averaged 0.65; its copy inside this library read 4.11 (one replicate of three). Three control strains display no target. For library AAYL49, 15% of the pairings with them gave a signal, with a median of 4.06 and one signal in twenty below 2.83, so weak values seen in few replicates may be background. For each scFv, signals with the empty controls are counted beside the result.

From the AlphaSeq antibody data of Engelhart et al. 2022 (doi:10.1038/s41597-022-01779-4), copy in the FLAb collection.